A short description of this series: Body weight of treated CD-1 mice after LNP-ceDNA administration. Particulars: male CD-1 mice, LNP-encapsulated ceDNA vector 0.5 mg/kg i.v. tail vein, co-administered agent; relative to polyC group; days 0-28. The protocol:
A ceDNA vector encoding luciferase as the transgene (e.g., SEQ ID NO: 56), with a wild-type AAV2 left ITR and a mutant right ITR and a hAAT promoter, methylated to eliminate free CpG, was used. The ceDNA vector was prepared as described above. […] Four replicates were included in each sample group. Body weights were recorded on days 0, 1, 2, 3, 7, 14, 21 and 28. In-life imaging was performed on days 4, 7, 14, 21, and 28 using an in vivo imaging system (IVIS). For the imaging, each mouse was injected with luciferin at 150 mg/kg via intraperitoneal injection at 2.5 mL/kg. After 15 minutes, each mouse was anaesthetized and imaged.

We go through one substance from patent US20220184231A1, “CLOSED-ENDED DNA (CEDNA) AND IMMUNE MODULATING COMPOUNDS” (Generation Bio Co., priority 2019, published 2022).

dexamethasone palmitate: the body weight loss result is given as “significantly attenuated”.
